Earlier results on 1 substance are cited in US5419315A, “Intrapulmonary delivery of hormones” (Aradigm Corporation, priority 1994, dated 1995).

For the data set the following is noted: nasal delivery.

For insulin, the local irritation result is on record as “Local irritation has been seen”.
